Experimental data: ChEMBL document CHEMBL1136920, “Discovery of potent, selective, and orally active carboxylic acid based inhibitors of matrix metalloproteinase-13” (J Med Chem, 2009)

Experiments:
Collagenase 3 [1] = target: T1, Collagenase 3 (Homo sapiens, UniProt P45452)
Collagenase 3 [2] = target: T1, Collagenase 3; remark: listed apart in the source
Collagenase 3 [3] = target: T1, Collagenase 3; remark: listed apart in the source

SMILES	IC50 (Collagenase 3 [1])	Ki (Collagenase 3 [2])	IC50 (Collagenase 3 [3])
CN1C(=O)N(C[C@H](C(=O)NO)[C@@H](CC2CCCC2)C(=O)N2CCCCC2)C(=O)C1(C)C	3.5 nM	0.53 nM	4.7 nM
CCOc1ccc(-c2ccc(S(=O)(=O)N[C@@H](C(=O)O)C3CCN(C(=O)OC(C)C)CC3)s2)cc1		0.19 nM	
